According to patent publication US20150258217A1, “Methods of Synthesizing and Using Peg-Like Fluorochromes” (THE GENERAL HOSPITAL CORPORATION, priority 2012, published 2015):

Test: PN and peptide size (volume, diameter) by FPLC gel filtration (Superdex 200, globular protein standards)
Type: physicochemical
Conditions: Table 5; globular protein equivalent molecular weight
Description: DOTA-Lys-Cys(IR783)-NH2 is then dissolved in DMSO, with 2 equivalents of an NHS ester of PEG and 6 equivalents of DIPEA. The reaction was at room temperature for 5 days. Product was purified by reverse phase HPLC separation. Product molecular weight was by matrix-assisted laser desorption ionization time-of-flight mass spectrometry (MALDI-TOF MS), with product molecular volume by size exclusion FPLC using globular protein standards (GE Healthcare life science AKTApurifier 10).
The mass spec of low molecular weights (MW) were obtained by MS-ESI Micromass (Waters) and high MW molecules were determined through MALDI-TOF analyses at the Tufts University Core Facility. […] Probe size (volume) was determined by FPLC using an ÄKTA Purifier 10 and Superdex™ 200 10/300GL column (GE Healthcare) with a running buffer of 0.05 M sodium phosphate, 0.15 M NaCl (0.1% Tween, pH 7.2) and flow rate of 0.8 ml/min. […]
The column was calibrated with globular protein standards, and globular protein equivalent molecular weights (in kDa) were obtained (Table 5, column 5). […] Using PEG's of 5 kDa and 30 kDa, selected for their low polydispersity, PN's were synthesized using IR-783, Cy3 and Fluorescein (see FIG. 22a) and their sizes determined (see FIGS. 23a, 23b, 23c). […] For reference, the diameter of a 67 kDa albumin determined by this method was 5.4 nm.

With “(DOTA)Lys-Cys(Fluorescein) [(DOTA)Lys-Cys(FI)]” as the substance, how does the “Volume FPLC” value read?
The value was 0.6 kDa.
